Test results reported in patent publication US20050209320A1 (priority 2003, published 2005).

Sequences of proteins named here, by UniProt entry; tags and fusion partners are left off. A change or cut given only in a name is not applied to a line headed by its entry.
UniProt P15207: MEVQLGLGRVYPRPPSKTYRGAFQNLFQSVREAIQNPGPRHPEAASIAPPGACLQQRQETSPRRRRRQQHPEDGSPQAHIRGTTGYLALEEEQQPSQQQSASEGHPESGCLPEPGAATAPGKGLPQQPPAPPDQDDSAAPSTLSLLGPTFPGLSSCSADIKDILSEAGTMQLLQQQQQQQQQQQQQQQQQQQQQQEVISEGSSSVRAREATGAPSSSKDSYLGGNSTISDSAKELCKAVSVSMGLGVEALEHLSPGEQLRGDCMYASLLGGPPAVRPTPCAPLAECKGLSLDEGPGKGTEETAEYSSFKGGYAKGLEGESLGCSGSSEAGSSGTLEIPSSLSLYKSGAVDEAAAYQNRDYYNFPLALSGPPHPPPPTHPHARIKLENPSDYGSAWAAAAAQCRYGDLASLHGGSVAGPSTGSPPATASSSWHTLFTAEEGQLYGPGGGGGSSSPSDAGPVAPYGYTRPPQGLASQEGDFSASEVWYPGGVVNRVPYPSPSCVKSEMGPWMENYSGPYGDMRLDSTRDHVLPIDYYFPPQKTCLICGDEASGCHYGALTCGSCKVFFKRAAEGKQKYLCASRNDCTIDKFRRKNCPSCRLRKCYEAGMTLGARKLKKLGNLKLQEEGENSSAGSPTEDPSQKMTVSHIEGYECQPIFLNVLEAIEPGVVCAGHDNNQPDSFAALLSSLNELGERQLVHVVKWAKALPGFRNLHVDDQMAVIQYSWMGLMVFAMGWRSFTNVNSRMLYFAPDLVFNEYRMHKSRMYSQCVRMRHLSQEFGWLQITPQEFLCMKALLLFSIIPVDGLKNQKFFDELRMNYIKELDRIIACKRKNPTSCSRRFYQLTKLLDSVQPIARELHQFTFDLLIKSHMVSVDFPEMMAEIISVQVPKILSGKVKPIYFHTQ

Assays:
[1] = system: LNCaP prostate cancer cells (express AR); assay: Cell proliferation, MTS (CellTiter 96 AQueous One), LNCaP cells; conditions: MTS method, FIG. 3
Androgen Receptor (AR) = Androgen Receptor (AR) (Rattus norvegicus, UniProt P15207); assay: Androgen Receptor (AR) binding affinity; conditions: Table 3

Cl.Oc1ccc(N(CCCl)CCCl)cc1
cytotoxicity in LNCaP cells [1]: partial cytotoxicity | Ki (nM) (Androgen Receptor (AR)): DNB
